Drawing on ChEMBL document CHEMBL1140644, “New modifications to the area of pyrazole-naphthyl urea based p38 MAP kinase inhibitors that bind to the adenine/ATP site” (Bioorg Med Chem Lett, 2007), this text covers fraction unbound for one molecule.

The species entered for this data set is Homo sapiens. Nature of the data set: Protein binding in human plasma by equilibrium dialysis. The note with it: read-out: PPB. On the technique in general: In equilibrium dialysis free small molecules cross a membrane that holds back macromolecules.

Consider `Cc1ccc(-n2nc(C(C)(C)C)cc2NC(=O)Nc2ccc(-c3ccc(CN4CCOCC4)nc3)c3ccccc23)cc1`, for which the fraction unbound is under 0.03.
